Read-outs that look alike come from different tables or passages of the source.
Experiments:
Tyk2 = Tyk2 (Homo sapiens (Human), UniProt P29597); assay: pSTAT4 Cell Assay (MSD, NK92 cells)
Description: The inhibitory potency of compounds of the disclosure against the Tyk2 kinase activity on STAT4 was evaluated using an MSD-platform plate-based assay format. NK92 cells natively expressing STAT4 and Tyk2 were serum-starved to reduce background phosphorylation levels, then cells were treated compounds for 1 hr with a 10-point four-fold dilution series starting at 10 μM. Cells were then stimulated with 30 ng/mL […] for 15 minutes. […] The data were normalized and the percent activity versus log concentration of compound were fitted with a 4-parameter logistic model to generate to generate IC50 curves.

By UniProt entry, the sequences of proteins in these tests, tags left out. Residues count along the entry.
UniProt P29597, whole entry: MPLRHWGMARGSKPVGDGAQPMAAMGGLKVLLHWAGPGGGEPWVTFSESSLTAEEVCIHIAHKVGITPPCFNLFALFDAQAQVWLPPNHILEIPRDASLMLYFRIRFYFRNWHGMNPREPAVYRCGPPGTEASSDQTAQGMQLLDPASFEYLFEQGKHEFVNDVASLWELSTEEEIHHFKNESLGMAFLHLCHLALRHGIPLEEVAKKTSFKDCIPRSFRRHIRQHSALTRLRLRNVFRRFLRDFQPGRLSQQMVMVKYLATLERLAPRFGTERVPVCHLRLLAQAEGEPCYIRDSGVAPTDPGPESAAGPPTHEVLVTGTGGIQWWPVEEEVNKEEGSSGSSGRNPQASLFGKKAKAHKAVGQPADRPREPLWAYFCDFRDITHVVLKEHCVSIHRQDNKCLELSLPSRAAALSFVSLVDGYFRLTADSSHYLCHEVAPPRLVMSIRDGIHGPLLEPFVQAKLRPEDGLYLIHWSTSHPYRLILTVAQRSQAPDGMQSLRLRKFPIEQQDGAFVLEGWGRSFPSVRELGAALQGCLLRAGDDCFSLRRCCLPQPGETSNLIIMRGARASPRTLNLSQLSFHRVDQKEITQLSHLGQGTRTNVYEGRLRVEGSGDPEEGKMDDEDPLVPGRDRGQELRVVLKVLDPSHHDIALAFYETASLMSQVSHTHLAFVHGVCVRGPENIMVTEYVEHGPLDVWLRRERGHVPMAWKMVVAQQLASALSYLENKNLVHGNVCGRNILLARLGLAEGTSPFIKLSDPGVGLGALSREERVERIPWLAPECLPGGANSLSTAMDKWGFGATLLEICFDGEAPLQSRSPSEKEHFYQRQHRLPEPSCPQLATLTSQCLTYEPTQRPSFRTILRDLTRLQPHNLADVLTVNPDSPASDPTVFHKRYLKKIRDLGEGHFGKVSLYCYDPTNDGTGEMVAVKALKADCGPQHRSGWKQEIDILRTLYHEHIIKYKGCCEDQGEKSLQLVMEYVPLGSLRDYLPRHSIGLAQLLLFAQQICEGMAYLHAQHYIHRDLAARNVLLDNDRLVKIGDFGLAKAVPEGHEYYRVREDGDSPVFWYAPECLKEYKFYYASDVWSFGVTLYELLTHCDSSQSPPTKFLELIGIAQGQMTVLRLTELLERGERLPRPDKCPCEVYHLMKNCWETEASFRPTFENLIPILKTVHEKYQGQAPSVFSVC
UniProt P29597, 575-876 limits assumed: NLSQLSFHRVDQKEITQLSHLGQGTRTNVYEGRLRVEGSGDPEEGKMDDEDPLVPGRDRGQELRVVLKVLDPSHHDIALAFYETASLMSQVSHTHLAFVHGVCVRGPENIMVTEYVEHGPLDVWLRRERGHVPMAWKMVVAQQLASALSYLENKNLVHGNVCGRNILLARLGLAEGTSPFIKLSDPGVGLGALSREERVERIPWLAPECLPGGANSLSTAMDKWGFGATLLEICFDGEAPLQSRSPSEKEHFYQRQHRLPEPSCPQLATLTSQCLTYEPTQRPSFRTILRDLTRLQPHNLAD
UniProt P23458, whole entry: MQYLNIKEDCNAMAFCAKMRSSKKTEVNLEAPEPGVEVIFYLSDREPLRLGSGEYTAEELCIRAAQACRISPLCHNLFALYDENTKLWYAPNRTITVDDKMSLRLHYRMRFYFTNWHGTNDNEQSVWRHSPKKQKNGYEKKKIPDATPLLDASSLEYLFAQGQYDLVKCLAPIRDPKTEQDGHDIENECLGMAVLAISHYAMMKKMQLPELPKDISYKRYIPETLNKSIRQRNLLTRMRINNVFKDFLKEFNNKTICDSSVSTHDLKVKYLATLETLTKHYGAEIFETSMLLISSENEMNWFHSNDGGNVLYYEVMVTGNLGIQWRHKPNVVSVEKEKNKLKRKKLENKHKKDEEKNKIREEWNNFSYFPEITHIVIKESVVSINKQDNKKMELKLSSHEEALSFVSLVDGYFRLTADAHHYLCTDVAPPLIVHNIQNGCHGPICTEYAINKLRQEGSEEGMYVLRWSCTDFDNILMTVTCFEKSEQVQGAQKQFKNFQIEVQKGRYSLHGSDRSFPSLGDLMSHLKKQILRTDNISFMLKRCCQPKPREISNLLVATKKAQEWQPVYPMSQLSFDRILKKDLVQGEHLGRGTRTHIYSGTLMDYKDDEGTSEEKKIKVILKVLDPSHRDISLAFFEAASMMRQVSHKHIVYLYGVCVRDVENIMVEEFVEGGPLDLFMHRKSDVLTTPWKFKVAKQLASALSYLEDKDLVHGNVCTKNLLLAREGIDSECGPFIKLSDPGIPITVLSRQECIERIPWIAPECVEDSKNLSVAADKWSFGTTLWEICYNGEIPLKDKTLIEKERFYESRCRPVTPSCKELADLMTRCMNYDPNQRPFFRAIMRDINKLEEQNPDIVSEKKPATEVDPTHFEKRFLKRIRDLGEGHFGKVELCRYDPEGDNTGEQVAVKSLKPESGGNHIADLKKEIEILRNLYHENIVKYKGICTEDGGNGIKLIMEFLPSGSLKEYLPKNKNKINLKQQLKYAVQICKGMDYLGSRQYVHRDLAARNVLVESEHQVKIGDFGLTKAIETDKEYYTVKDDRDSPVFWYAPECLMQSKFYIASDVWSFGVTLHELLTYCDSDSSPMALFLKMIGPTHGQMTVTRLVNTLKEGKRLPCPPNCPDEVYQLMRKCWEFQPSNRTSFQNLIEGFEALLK

JH2 domain of human Tyk2 = JH2 domain of human Tyk2 (Homo sapiens (Human), UniProt P29597); assay: JH2 Biochemical Assay (TR-FRET probe displacement); conditions: read-out: TYK2-JH2 IC50
Description: The inhibitory potency of compounds of the disclosure against the kinase activity of recombinantly generated JH2 domain of human Tyk2 was evaluated in a plate-based assay using a TR-FRET assay platform. Briefly, 2 nM of recombinant JH2 domain [10×His-tagged TYK2 JH2 domain (amino acid 575-876)] was combined with 2 nM probe ((S)-6-amino-9-(2-carboxy-4-((1-(3-(8-methyl-5-(methylamino)-8H-imidazo[4,5-d]thiazolo[5,4-b]pyridin-2-yl)phenyl)ethyl)carbamoyl)phenyl)-3-iminio-5-sulfo-3H-xanthene-4-sulfonate), 0.1 nM Tb-labeled anti-His antibody, and compounds of disclosure for 60 minutes. Compounds are tested at either 10 μM or 1 μM top concentration, 10 points of 3-fold dilution. The TR-FRET signal inversely correlates to the amount of probe displaced by compounds and signal was calculated by taking the ratio of fluorescence at 520 nm and 495 nm. The data was normalized and the percent activity versus log concentration of compound was fitted with a 4-parameter logistic model to generate IC50 curves.

JAK1 = JAK1 (Homo sapiens (Human), UniProt P23458); assay: pSTAT3 Cell Assay (MSD, TF1 cells); conditions: read-out: JAK1, IL-6 stimulated
Description: The inhibitory potency of compounds of the disclosure against the JAK1 kinase activity on STAT3 was evaluated using an MSD-platform plate-based assay format. TF1 cells natively expressing STAT3 and JAK1 were serum-starved to reduce background phosphorylation levels, then cells were treated with compounds of the disclosure for 1 hour with a 10-point four-fold dilution series starting at 10 μM. Cells were then stimulated with 30 ng/mL interleukin 6 (IL-6) for 15 minutes. Cells were lysed and pSTAT3 levels were quantitated using an MSD plate-based assay with anti-STAT3 antibodies. The data were normalized and the percent activity versus log concentration of compound was fitted with a 4-parameter logistic model to generate IC50 curves.

[1] = TR-FRET probe displacement, JH2 domain
[2] = JH2 domain of human Tyk2, TR-FRET probe displacement

Structure (SMILES): CC(=O)Nc1cc(Nc2ccnc(C(C)(F)F)n2)c(-c2ccc(N3CC4(COC4)C3)nn2)cn1
- IC50 (Tyk2; read-out: TYK2): < 10 nM
- IC50 (JH2 domain of human Tyk2; [1]): < 10 nM

Structure (SMILES): CC(=O)Nc1cc(Nc2cc(C)nc(C(C)(F)F)n2)c(-c2cnn(C3CCC3)c2)cn1
- IC50 (Tyk2; read-out: TYK2, MSD): > 1000 nM
- IC50 (JH2 domain of human Tyk2; [2]): 10 to 100 nM

Structure (SMILES): CCc1cc(Nc2cc(NC(C)=O)ncc2-c2ncc(C#N)cn2)nc(C(C)(F)F)n1
- IC50 (Tyk2; read-out: TYK2): 10 to 100 nM
- IC50 (JH2 domain of human Tyk2; [1]): < 10 nM

Structure (SMILES): COc1cccc(COc2cnc(NC(C)=O)cc2Nc2cc(C)nc(C(C)(F)F)n2)c1
- IC50 (Tyk2; read-out: TYK2, MSD): 100 to 1000 nM
- IC50 (JH2 domain of human Tyk2; [2]): < 10 nM

Structure (SMILES): CC(=O)Nc1cc(Nc2cc(C)nc(C34COC(C3)C4)n2)c(-c2ccnc(C)n2)cn1
- IC50 (Tyk2; read-out: TYK2): 10 to 100 nM
- IC50 (JAK1): > 1000 nM
- IC50 (JH2 domain of human Tyk2; [1]): < 10 nM

Structure (SMILES): CCc1cc(Nc2cc(NC(C)=O)ncc2-c2ccnc(CN3CC4CC(C3)O4)n2)nc(C(C)(F)F)n1
- IC50 (Tyk2; read-out: TYK2): > 1000 nM
